# Laboratory results as given in PubChem BioAssay AID540267 (National Center for Advancing Translational Sciences (NCATS), 2011).
# This is a selection; strong and weak results do not stand in their true shares. Calls of active or inactive are those of the source. Rule as the data show it: active = activity change below about -80%; inconclusive = between about -30% and that limit; inactive = weaker than that.
# Test: Small Molecules that selectively kill Giardia lamblia: qHTS;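 also: parasites exposed to compound for two days anaerobically before the ATP read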
# Details: Giardia lamblia trophozoite viability; at 7.66 µM; hits give low values
# Source text: Giardia lamblia is a human pathogen afflicting impoverished nations, and the most common cause of outbreaks of diarrhea in the United States. Giardia has been classified by the CDC as a category B bioterrorism organism. The favored anti giardiasis drugs in the US are metronidazole or tinidazole, compounds that have undesirable side effects. Moreover, increasing resistance to drug regimes and recurrence are a concern. It is thus clear that alternative drug treatments are needed.
# In a collaboration between the University of Maryland, College Park and the NIH Chemical Genomics Center, a bioluminescence Giardia viability assay based on the trophozoites' ATP content was developed. This assay is suitable for high throughput screening, and miniaturized the assay for compound screening in 1536-well plates. The goal of the project is to screen the Molecular Libraries Small Molecule Repository (MLSMR) for compounds that selectively kill Giardia trophozoites.
# NIH Chemical Genomics Center [NCGC]
# NIH Molecular Libraries Probe Centers Network [MLPCN]
# Assay Submitter (PI): Osnat Herzberg, University of Maryland, College Park, MD.
# 1. Dispense 2 ul/well media
# 2. Dispense 23 nl/well compounds
# 3. Dispense 4 ul/well Giardia trophozoites at a concentration of 100 cells/well
# 4. Incubate 48 hrs at 37 deg C anaerobically
# 5. Dispense 4 ul/well ATPLite 1-Step Luminescence assay kit
# 6. Incubate 15-30 min at room temperature
# 7. Read luminescence signal on ViewLux plate reader
# % is scaled to controls: 0 for no effect and ±100 for the full control effect.
row,Structure (SMILES),activity change
1,O=[N+]([O-])c1cc([N+](=O)[O-])c(-c2cnn(-c3ccccc3)c2)c([N+](=O)[O-])c1,inactive: -29.7%
2,Cc1nc2ccc3ccccc3c2s1.O=[N+]([O-])c1cc([N+](=O)[O-])c(O)c([N+](=O)[O-])c1,inactive: 6.78%
3,O=[N+]([O-])c1cc([N+](=O)[O-])c(-n2nnc3ccccc32)c([N+](=O)[O-])c1,inactive: 20.4%
4,COc1ccccc1OP(C)(=O)Nc1c(C)cccc1C (stereo not drawn),inactive: -4.02%
5,CN1CCCCC1COC(=O)C1(O)c2ccccc2CCc2ccccc21 (stereo not drawn),inactive: 14.8%
6,CP(=O)(Nc1ccc(SC(F)(F)F)cc1)Oc1ccccc1 (stereo not drawn),inactive: -7.01%
7,CCCOc1ccc(NP(C)(=O)Oc2ccc(Cl)cc2)cc1 (stereo not drawn),inactive: -0.286%
8,O=[N+]([O-])c1cc([N+](=O)[O-])c(Nc2nnnn2CCO)c([N+](=O)[O-])c1,inactive: -17.7%
9,CC1=C2N=C(C=C3N=C(C(C)=C4[N-][C@@](C)([C@@H]5N=C1[C@](C)(CCC(=O)NC[C@@H](C)OP(=O)([O-])O[C@H]1[C@@H](O)[C@@H](n6cnc7cc(C)c(C)cc76)O[C@@H]1CO)[C@H]5CC(N)=O)[C@@](C)(CC(N)=O)[C@@H]4CCC(N)=O)[C@@](C)(CC(N)=O)[C@@H]3CCC(N)=O)C(C)(C)[C@@H]2CCC(N)=O.[C-]#N.[Co+3],inactive: 44.6%
10,CC1=NCCc2c1[nH]c1ccccc21.O=[N+]([O-])c1cc([N+](=O)[O-])c(O)c([N+](=O)[O-])c1,inactive: 7.49%
11,Cc1ccc(C)c(NP(C)(=O)Oc2ccccc2)c1 (stereo not drawn),inactive: -4.11%
12,CP(=O)(Nc1cccc(Br)c1)Oc1ccccc1 (stereo not drawn),inactive: -4.24%
13,Cc1cc(C)cc(OP(C)(=O)Nc2ccccn2)c1 (stereo not drawn),inactive: 10.5%
14,COc1ccccc1OP(C)(=O)Nc1cccc(Br)c1 (stereo not drawn),inactive: -3.52%
15,CCOC(=O)c1ccc(NP(C)(=O)Oc2cc(C)cc(C)c2)cc1 (stereo not drawn),inactive: 22.8%
16,Cc1cc(C)cc(OP(C)(=O)Nc2ccc(C)cc2C)c1 (stereo not drawn),inactive: -2.19%
17,CCN(CC)CCCOC(=O)C(O)(c1ccccc1)c1ccccc1,inactive: -11.6%
18,Cc1ccc(NP(C)(=O)Oc2ccccc2)c(C)c1 (stereo not drawn),inactive: 3.79%
19,COc1ccccc1OP(C)(=O)Nc1ccc(C)cc1 (stereo not drawn),inactive: 0.417%
20,CCOC(=O)c1ccc(NP(C)(=O)Oc2ccccc2)cc1 (stereo not drawn),inactive: -10.5%
21,Cc1cc(C)cc(OP(C)(N)=O)c1 (stereo not drawn),inactive: 6.11%

row,Structure (SMILES),activity change
1,COc1ccc(OP(C)(=O)Nc2cccc(F)c2)cc1 (stereo not drawn),inactive: -1.04%
2,COc1ccccc1OP(C)(=O)Nc1cc(Cl)ccc1C (stereo not drawn),inactive: 11.3%
3,O=[N+]([O-])c1ccc2c(c1)C=Nc1ccccc1O2,inactive: 7.65%
4,Cc1cccc(C)c1OP(C)(N)=O (stereo not drawn),inactive: -24.7%
5,CC(C)(C)c1ccc(OP(C)(=O)Nc2ccc(SC(F)(F)F)cc2)cc1 (stereo not drawn),inactive: -2.96%
6,CP(=S)(Nn1cnnc1)Oc1ccccc1 (stereo not drawn),inactive: -1.39%
7,CP(=O)(Nc1ccccc1Br)Oc1ccccc1 (stereo not drawn),inactive: -12.4%
8,COc1ccccc1OP(C)(=O)Nc1ccccc1 (stereo not drawn),inactive: 2.16%
9,CCOC(=O)c1ccc(NP(C)(=O)Oc2ccc(OC)cc2)cc1 (stereo not drawn),inactive: 22.2%
10,O=[N+]([O-])c1cc([N+](=O)[O-])c(O)c([N+](=O)[O-])c1.c1ccc(Oc2ccncc2)cc1,inactive: -12.9%
11,CCOP(C)(=S)SCC(=O)NC(C)C(=O)O (stereo not drawn),inactive: -18.7%
12,CP(=O)(Nc1ccccn1)Oc1ccc(Cl)cc1 (stereo not drawn),inactive: -27.3%
13,CP(=O)(Oc1ccccc1)OC(c1ccccc1)C(F)(F)F (stereo not drawn),inactive: 8.41%
14,Cc1cccc(C)c1OP(C)(=O)Nc1ccc(SC(F)(F)F)cc1 (stereo not drawn),inactive: 6.12%
15,CP(=O)(Nc1ccc(SC(F)(F)F)cc1)Oc1ccc(Cl)cc1 (stereo not drawn),inactive: 16.2%
16,Cc1cc(C)cc(OP(C)(=O)Nc2ccc(SC(F)(F)F)cc2)c1 (stereo not drawn),inactive: -0.138%
17,CCc1ccc(OP(C)(=O)N2CCN(c3ccc([N+](=O)[O-])cc3)CC2)cc1 (stereo not drawn),inactive: -10.7%
18,CP(=O)(NC(=O)Nc1ccccc1)Oc1ccccc1 (stereo not drawn),inactive: 25.1%
19,CC(C)(C)c1ccc(OP(C)(=O)O)cc1,inactive: 5.27%
20,COc1ccccc1OP(C)(=O)Nc1ccccc1Br (stereo not drawn),inactive: 2.24%
21,CP(=O)(Nc1ccc(Cl)cc1)Oc1ccc(F)cc1 (stereo not drawn),inactive: 2.65%

row,Structure (SMILES),activity change
1,COc1ccc(OP(C)(=O)Nc2ccc(Br)cc2)cc1 (stereo not drawn),inactive: 9.25%
2,CCN(CC)CC(O)COC(=O)C(O)(c1ccccc1)C1CCCCC1 (stereo not drawn),inactive: -0.988%
3,O=C(OCCCN1CCCC1)C(O)(c1ccccc1)C1CCCCC1 (stereo not drawn),inactive: -0.233%
4,COc1ccccc1OP(C)(=O)Nc1c(C)n(C)n(-c2ccccc2)c1=O (stereo not drawn),inactive: 12.7%
5,CCc1ccc(OP(C)(=O)Nc2cccnc2)cc1 (stereo not drawn),inactive: 0.448%
6,CP(=O)(Oc1ccccc1)N1CCOC1=O (stereo not drawn),inactive: 21.2%
7,Nc1ccc2c(ccc3cccnc32)n1.O=[N+]([O-])c1cc([N+](=O)[O-])c(O)c([N+](=O)[O-])c1,inactive: 1.29%
8,CCOC(=O)c1ccc(NP(C)(=O)Oc2ccc(Cl)cc2)cc1 (stereo not drawn),inactive: 9.79%
9,CP(=O)(OC12CC3CC(CC(C3)C1)C2)OC12CC3CC(CC(C3)C1)C2,inactive: -13.6%
10,CP(=O)(OCCOc1ccccc1)OCCOc1ccccc1,inactive: 3.77%
11,CP(=O)(Nc1ccc(Cl)cc1Cl)Oc1ccccc1 (stereo not drawn),inactive: -1.48%
12,CCCCCCCCCCCCCCCC1C[N+](C)(C)CCOP(C)(=O)O1 (stereo not drawn),inactive: -7.2%
13,Cc1cc(C)cc(OP(C)(=O)Nc2cccc(C(F)(F)F)c2)c1 (stereo not drawn),inactive: 3.46%
14,COc1ccccc1OP(C)(=O)Nc1ccc(C)c(C)c1 (stereo not drawn),inactive: 7.45%
15,COc1ccc(OP(C)(=O)Nc2ccccc2Br)cc1 (stereo not drawn),inactive: -11%
16,Cc1c(NP(C)(=O)Oc2ccc(C(C)C)cc2)c(=O)n(-c2ccccc2)n1C (stereo not drawn),inactive: 2.45%
17,COc1ccccc1OP(C)(=O)Nc1ccc(C)cc1C (stereo not drawn),inactive: 24.7%
18,CP(=O)(Nc1ccccn1)Oc1ccccc1 (stereo not drawn),inactive: -13.2%
19,CCc1ccc(OP(C)(=O)O)cc1,inactive: -14.4%
20,COc1ccccc1OP(C)(=O)Nc1ccc(Br)cc1 (stereo not drawn),inactive: -15.9%
21,COc1ccc(OP(C)(=O)Nc2ccccn2)cc1 (stereo not drawn),inactive: 1.14%

row,Structure (SMILES),activity change
1,CN(C)CCOC(=O)C(O)(c1ccccc1)C1CCCC1 (stereo not drawn),inactive: 3.85%
2,O=C(OCCN1CCN(CCOCc2ccccc2)CC1)C(O)(c1ccccc1)c1ccccc1,inactive: -12.4%
3,CP(=O)(Nc1ccccc1F)Oc1ccccc1 (stereo not drawn),inactive: 3.58%
4,CC(C)c1ccc(OP(C)(=O)Nc2ccc(SC(F)(F)F)cc2)cc1 (stereo not drawn),inactive: 1.99%
5,Cc1c([N+](=O)[O-])cc([N+](=O)[O-])c(Br)c1[N+](=O)[O-],inactive: -5.6%
6,CCN(CC)CCCOC(=O)C(O)(c1ccccc1)C1CCCCC1 (stereo not drawn),inactive: -1.71%
7,CP(=O)(Nc1ccccc1)Oc1ccc(F)cc1 (stereo not drawn),inactive: -18.5%
8,CCCCCOc1ccc(NP(C)(=O)Oc2ccc(Cl)cc2Cl)cc1 (stereo not drawn),inactive: 31.4%
9,CCOC(=O)c1ccc(NP(C)(=O)Oc2ccc(F)cc2)cc1 (stereo not drawn),inactive: -16.6%
10,COc1ccc(OP(C)(=O)Nc2ccc(SC(F)(F)F)cc2)cc1 (stereo not drawn),inactive: -4.12%
11,O=[N+]([O-])c1ccc(OP2(=O)COCCO2)cc1 (stereo not drawn),inactive: 22.4%
12,Cc1cc(-c2cccc3ccccc23)c(C)cn1.O=[N+]([O-])c1cc([N+](=O)[O-])c(O)c([N+](=O)[O-])c1,inactive: -20.1%
13,Cc1c(C(c2ccc3c(c2)OCO3)c2c(C)n(C)n(-c3ccccc3)c2=O)c(=O)n(-c2ccccc2)n1C.O=[N+]([O-])c1cc([N+](=O)[O-])c(O)c([N+](=O)[O-])c1,inactive: 7.63%
14,COc1ccc(OP(C)(=O)Nc2cccc(Br)c2)cc1 (stereo not drawn),inactive: 0.56%
15,CN(C)CCOC(=O)C(O)(c1ccccc1)C1CCCCC1 (stereo not drawn),inactive: -29.9%
16,COc1ccc(NP(C)(=O)Oc2ccccc2OC)cc1 (stereo not drawn),inactive: -8.61%
17,CP(=O)(Nc1ccc2c(c1)OCCO2)Oc1ccccc1 (stereo not drawn),inactive: 1.2%
18,Cc1ccccc1NP(C)(=O)Nc1ccccc1C,inactive: 10.2%
19,CP(=O)(Nc1ccc(SC(F)(F)F)cc1)Oc1ccc(F)cc1 (stereo not drawn),inactive: 9.01%
20,CCOP(C)(=S)SCC(=O)NC(C)(CC)C(=O)O (stereo not drawn),inactive: -0.644%
